Data: ChEMBL document CHEMBL5108089, “Structure-based discovery of potent inhibitors of Axl: design, synthesis, and biological evaluation” (RSC Med Chem, 2022)

Target: T1, Tyrosine-protein kinase receptor UFO (Homo sapiens, UniProt P30530)
T1 sequence (P30530 whole entry): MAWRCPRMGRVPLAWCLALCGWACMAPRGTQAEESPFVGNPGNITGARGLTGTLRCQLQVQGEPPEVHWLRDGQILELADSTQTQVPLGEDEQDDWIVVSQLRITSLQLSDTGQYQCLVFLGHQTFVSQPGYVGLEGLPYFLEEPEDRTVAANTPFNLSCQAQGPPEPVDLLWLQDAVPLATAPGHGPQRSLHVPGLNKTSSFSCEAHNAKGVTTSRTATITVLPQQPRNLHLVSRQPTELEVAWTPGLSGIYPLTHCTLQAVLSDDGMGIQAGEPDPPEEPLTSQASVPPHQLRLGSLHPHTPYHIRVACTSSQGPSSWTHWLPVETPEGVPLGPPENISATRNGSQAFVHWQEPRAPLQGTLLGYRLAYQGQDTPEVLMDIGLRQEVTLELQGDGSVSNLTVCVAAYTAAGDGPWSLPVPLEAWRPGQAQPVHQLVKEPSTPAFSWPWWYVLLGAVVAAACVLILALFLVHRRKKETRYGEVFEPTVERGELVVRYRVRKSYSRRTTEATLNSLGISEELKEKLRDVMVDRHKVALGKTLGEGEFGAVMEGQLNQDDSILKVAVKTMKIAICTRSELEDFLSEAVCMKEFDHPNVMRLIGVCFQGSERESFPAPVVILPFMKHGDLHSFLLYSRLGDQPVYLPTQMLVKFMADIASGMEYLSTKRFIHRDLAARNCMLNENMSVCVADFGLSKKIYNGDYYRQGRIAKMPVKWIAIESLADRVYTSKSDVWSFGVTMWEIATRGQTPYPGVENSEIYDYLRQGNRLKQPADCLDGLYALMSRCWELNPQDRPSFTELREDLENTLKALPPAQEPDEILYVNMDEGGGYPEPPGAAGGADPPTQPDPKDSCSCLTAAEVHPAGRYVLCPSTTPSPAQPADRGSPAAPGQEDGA
Experiment: Inhibition of human Axl using KKSRGDYMTMQIG as substrate incubated for 40 mins in the presence of [gamma33P]ATP by scintillation counting analysis

IC50: 15 nM
SMILES: CN1CCN(Cc2ccc(Nc3ncc(Cl)c(Nc4ccccc4S(=O)(=O)N(C)C)n3)cc2)CC1 [DUBERMATINIB]
